This is an account of results in PubChem BioAssay AID709 (SRMLSC, 2007).

The list shows a part of the results, in another mix than the full data. Activity calls are given as the source filed them.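 How the source made its calls: active means at 10 µM, mean starting fluorescence two-fold or more over control wells; inactive means the rest.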

The experiment in a line: intrinsic fluorescence of library compounds, ex339/em460 – biochemical, MLSMR library, data from DPM-DC assay, artefact control, profiling panel (AID 709).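 Further: signal is the first read of a kinetic run.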 Particulars: compound autofluorescence, ex339/em460 nm, NADH buffer; at 10 µM; active compounds read high; 1 = no-compound wells, NADH background.
For `CCOc1ncccc1C(=O)NCC1(N2CCOCC2)CCCCC1`, the fluorescence fold increase is inactive: 1.05. The figure for `CCC(CO)(C(=O)OC1CN2CCC1CC2)c1ccccc1` (configuration not stated) is inactive: 1.08. Turning to `Fc1ccccc1NC1CCN(Cc2ccccc2)CC1`, the fluorescence fold increase is inactive: 1. The figure for `N/C(=N\O)c1c(N)no[n+]1[O-]` is inactive: 1.05. Consider `N#CC1(Nc2ccccc2)CCN(CCc2ccccc2)CC1`, for which the fluorescence fold increase was inactive: 1.07.

Consider `COc1ccc(NC2CCN(CCc3ccccc3)CC2)c(OC)c1`, for which the fluorescence fold increase was inactive: 1.05.

In the case of `O=C(OC1CN2CCC1CC2)C1c2ccccc2Oc2ccccc21` (configuration not stated), the fluorescence fold increase was inactive: 1.07.
